ChEMBL document CHEMBL1147033, “Novel selective androgen receptor modulators: SAR studies on 6-bisalkylamino-2-quinolinones” (Bioorg Med Chem Lett, 2007)

Columns and labels:
Homo sapiens [1] = species on record: Homo sapiens; assay: Selectivity for human AR receptor over estrogen receptor
Homo sapiens [2] = species on record: Homo sapiens; assay: Selectivity for human AR receptor over progesterone receptor
Homo sapiens [3] = species on record: Homo sapiens; assay: Selectivity for human AR receptor over glucocorticoid receptor
Homo sapiens [4] = species on record: Homo sapiens; assay: Selectivity for human AR receptor over mineralocorticoid receptor

Measured: Fold change

Cc1cc(=O)[nH]c2ccc(N(CC(F)(F)F)CC(F)(F)F)cc12
1000: Homo sapiens [1] | Homo sapiens [2] | Homo sapiens [3] | Homo sapiens [4]

CCCN(CC(F)(F)F)c1ccc2[nH]c(=O)cc(C(F)(F)F)c2c1
1000: Homo sapiens [1] | Homo sapiens [2] | Homo sapiens [3] | Homo sapiens [4]
